For one molecule, Kd results are on record in publication PMC9951332 (Advanced Science, 2022).

The term Kd denotes a measure of binding affinity in units of concentration.

The assay has as its target T1, recombinant CD73 (SPR analyte) (UniProt P21589 27-549).
T1 construct: CD73 (NT5E), recombinant; May be the same protein as m6 (His-CD73); source: recombinant
T1 sequence (looked up): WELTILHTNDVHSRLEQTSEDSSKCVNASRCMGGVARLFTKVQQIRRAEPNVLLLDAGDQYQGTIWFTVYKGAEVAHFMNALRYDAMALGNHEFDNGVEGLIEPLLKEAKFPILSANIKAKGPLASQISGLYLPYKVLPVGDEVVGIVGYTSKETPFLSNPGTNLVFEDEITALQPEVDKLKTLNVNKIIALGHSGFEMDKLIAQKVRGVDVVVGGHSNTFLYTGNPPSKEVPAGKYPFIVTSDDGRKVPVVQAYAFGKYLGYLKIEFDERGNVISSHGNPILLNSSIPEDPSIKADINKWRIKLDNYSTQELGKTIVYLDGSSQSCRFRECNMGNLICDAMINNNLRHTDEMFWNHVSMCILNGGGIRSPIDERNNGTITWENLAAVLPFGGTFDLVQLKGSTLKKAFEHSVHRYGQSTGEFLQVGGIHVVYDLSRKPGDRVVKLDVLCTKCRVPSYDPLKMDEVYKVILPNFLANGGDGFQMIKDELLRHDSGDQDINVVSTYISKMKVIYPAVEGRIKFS
The assay is described as follows: SPR; Biacore 8K, CM5 sensor chip; TRIM21 immobilised; recombinant CD73 at 96, 48, 24, 12, 6 and 3 nM or Snail at 64, 32, 16, 8, 4 and 2 nM flowed over. The settings on record: both partners purified. In general terms: Surface plasmon resonance follows binding to a sensor surface in real time, without labels.

B1: TRIM21 immobilised on the SPR chip (natural protein, UniProt P19474 1-475, looked up)
chain: MASAARLTMMWEEVTCPICLDPFVEPVSIECGHSFCQECISQVGKGGGSVCPVCRQRFLLKNLRPNRQLANMVNNLKEISQEAREGTQGERCAVHGERLHLFCEKDGKALCWVCAQSRKHRDHAMVPLEEAAQEYQEKLQVALGELRRKQELAEKLEVEIAIKRADWKKTVETQKSRIHAEFVQQKNFLVEEEQRQLQELEKDEREQLRILGEKEAKLAQQSQALQELISELDRRCHSSALELLQEVIIVLERSESWNLKDLDITSPELRSVCHVPGLKKMLRTCAVHITLDPDTANPWLILSEDRRQVRLGDTQQSIPGNEERFDSYPMVLGAQHFHSGKHYWEVDVTGKEAWDLGVCRDSVRRKGHFLLSSKSGFWTIWLWNKQKYEAGTYPQTPLHLQVPPCQVGIFLDYEAGMVSFYNITDHGSLIYSFSECAFTGPLRPFFSPGFNDGGKNTAPLTLCPLNIGSQGSTDY
notes: TRIM21 immobilised on a CM5 chip; May be the same protein as m5 (GST-TRIM21)
Take B1: the equilibrium dissociation constant (Kd) stood at 6.2 ± 0.7 nM.
